Data: ChEMBL document CHEMBL3875229, “Potent Antifungal Synergy of Phthalazinone and Isoquinolones with Azoles Against Candida albicans” (ACS Med Chem Lett, 2017)

Tested on: Candida albicans
Assay: Antifungal activity against Candida albicans HLY4123 after 16 hrs in presence of 0.25 ug/ml of fluconazole by ten fold serial dilution method
Format: functional

SMILES	Activity
COc1cc(Br)ccc1-n1cc(C(=O)NCCc2ccccc2)c2ccccc2c1=O	Dose-dependent effect
COc1ccc(-n2nc(C(=O)NCC(=O)NCCC3=CCCCC3)c3ccccc3c2=O)c(OC)c1	Dose-dependent effect
COc1cc(Br)ccc1-n1cc(C(=O)NCC(=O)NCCC2=CCCCC2)c2sccc2c1=O	Dose-dependent effect
COc1cc(Br)ccc1-n1cc(C(=O)NCC(=O)NCCC2=CCCCC2)c2occc2c1=O	Dose-dependent effect
COc1cc(C#CCCCO)ccc1-n1cc(C(=O)NCC(=O)NCCC2=CCCCC2)c2ccccc2c1=O	Dose-dependent effect
COc1cc(Br)ccc1-n1cc(C(=O)NCC(=O)NCCC2=CCCCC2)c2ccc(C#CCCCO)cc2c1=O	Dose-dependent effect
COc1cc(Br)ccc1-n1cc(C(=O)NCC(=O)NCCC2=CCCCC2)c2ccccc2c1=O	Dose-dependent effect
COc1cc(Br)ccc1-n1cc(C(=O)N[C@@H](CCCCNC(=O)OCc2ccccc2Cl)C(=O)NCCC2=CCCCC2)c2ccccc2c1=O	Dose-dependent effect
COc1cc(Br)ccc1-n1cc(C(=O)NCC(=O)NCCC2=CCCCC2)c2ccc(Br)cc2c1=O	Dose-dependent effect
COc1cc(Br)ccc1-n1nc(C(=O)NCC(=O)NCCC2=CCCCC2)c2ccccc2c1=O	Dose-dependent effect
COc1cc(Br)ccc1-n1cc(C(=O)NCC(=O)NCCc2ccccc2)c2ccccc2c1=O	Dose-dependent effect
COc1ccc(-n2cc(C(=O)NCC(=O)NCCC3=CCCCC3)c3ccccc3c2=O)c(OC)c1	Dose-dependent effect
COc1cc(C)ccc1-n1cc(C(=O)NCC(=O)NCCC2=CCCCC2)c2ccccc2c1=O	Dose-dependent effect
